Screens (PubChem)
HCMV NEC inh: inhibitors of HCMV UL50-UL53 nuclear egress complex interaction; inhibition, % (concentration not given with the values); 0.15% of 190,000 active; HTRF UL50-UL53 interaction, normalized percent inhibition; AID 1918969; in the data active = inhibition above about 27%, passing the limit was not always enough
GIV-Gai inh: GIV-Galpha-i interaction inhibition; P08753; Galpha-i3/FITC-GIV peptide fluorescence polarization, 90 min; active compounds read low; scaled: aluminum fluoride 0%, vehicle 100%; percent of control (FP), % (no concentration beside the values); 210,000 compounds, 0.42% hits; AID 1224905;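 active means replicate mean at 85% of control or lower, very high polarization wells dropped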;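 further: wells of about 15 µL received 100 nL stock; the first replicate is given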
* = called active by the depositor; / = no result; ! = a repeat was not active. The full list was thinned out, with hits kept by preference.

SMILES	HCMV NEC inh	GIV-Gai inh
CCCNC(=O)c1ccc2c(=O)n(-c3cccc(OC)c3)c(SCC(=O)c3c(C)[nH]c4ccccc34)nc2c1	-13	102
CC(=O)N1CCCSc2ccc(S(=O)(=O)NCCCN3CCOCC3)cc21	-6	99
O=C(Cc1csc(NC(=O)Nc2ccccc2)n1)Nc1ccccc1	-14	104
Cc1ccc2[nH]c(=O)c(N3CCCCC3)c(-c3ccccc3)c2c1	-5	/
Cc1ccc2c(=O)c(C(=O)c3ccccc3)cn(CC(=O)Nc3ccccc3)c2n1	/	113
Cc1ccc2c(=O)c(C(=O)c3ccccc3)cn(CC(=O)Nc3ccc(C)c(F)c3)c2n1	72*	139
CC(C)(CNS(=O)(=O)c1ccc(Cl)cc1)N1CCCCC1	-22	/
O=C(c1ccc2c(c1)nnn2Cc1ccccc1)N1CCN(c2ccccn2)CC1	/	106
COc1ccc(C2C=C(c3ccc(Cl)cc3)Nc3nc(-c4ccc(Cl)cc4)nn32)cc1 (centres undefined)	6	-8.2*!
O=C(Nc1nc2n(n1)C(c1ccc(F)cc1)C=C(c1ccccc1)N2)c1ccco1 (centres undefined)	-51	130
Cc1ccc(C2=CC(c3ccc(Cl)cc3)n3nc(-c4ccc(C)cc4)nc3N2)cc1 (centres undefined)	12	101
O=C(Nc1nc2n(n1)C(c1ccc(Cl)cc1)C=C(c1ccccc1)N2)c1ccco1 (centres undefined)	-36	-44*
COc1ccc(C2C=C(c3ccccc3)Nc3nc(NC(=O)c4ccc(C)cc4)nn32)cc1 (centres undefined)	-29	128
COc1ccc(C(=O)Nc2nc3n(n2)C(c2ccc(Cl)cc2)C=C(c2ccccc2)N3)cc1OC (centres undefined)	-65	40*
NCCN1CCCCC1	-4	/
CC(C)Cc1cc(-c2nn3c(COc4ccc(Br)cc4)nnc3s2)n[nH]1	-19	103
COc1ccc(C2C(C(=O)OCCOc3ccccc3)=C(C)NC3=C2C(=O)CC(C)(C)C3)c(OC)c1OC (centres undefined)	-30	101
CCCCC12CN3CC(C)(CN(C1)C3c1cc(Br)ccc1O)C2=O (centres undefined)	-31	104
O=c1oc2cc(O)ccc2cc1-c1csc(-c2ccccc2Cl)n1	5	112
O=c1oc2cc(O)ccc2cc1-c1nc(-c2ccccc2F)no1	-30	-62*
CCCCCCCCCCCCCCCC(=O)NCCO	2	/
COC(=O)c1ccc2c(=O)[nH]c(COC(=O)c3oc4ccccc4c3C)nc2c1	-10	/
O=c1cc(CN2CCCc3ccccc32)nc2sccn12	-55	-43*
CCCc1nn2c(=O)cc(CN3CCCc4ccccc43)nc2s1	/	159
CCN(CC)c1ccc2cc(C#N)c(=O)oc2c1	-20	/
CCCCCCc1cc2cc(C#N)c(=O)oc2cc1O	-20	-3.8*
N#Cc1c(N)nc(SCC(=O)c2ccccc2)c(C#N)c1-c1ccc(O)cc1	30*	100
N#Cc1c(N)nc(SCC(=O)c2ccc(Br)cc2)c(C#N)c1-c1ccc(O)cc1	9	97
COc1ccc(NC(=O)C(C)n2nnc3sc(-c4ccccc4)cc3c2=O)cc1Cl (centres undefined)	-18	98
Cn1nccc1NC(=O)Nc1ccc(Cl)cc1	66*	102
Cn1nc(C(C)(C)C)cc1NC(=O)Nc1ccc(Cl)cc1	-10	/
Cc1cc(NCCc2ccccc2)n2ncc(-c3ccc(F)cc3)c2n1	-4	103
O=C(COC(=O)C1CC2CCCC(C1)C2=O)NC1CCS(=O)(=O)C1 (centres undefined)	-2	/
O=C1c2ccccc2-c2c(NCCc3ccccc3)c(=O)[nH]c3cccc1c23	/	-73*
CCCCNc1c2c3c(cccc3[nH]c1=O)C(=O)c1ccccc1-2	-58	-48*
Nc1c2c3c(c(Cl)ccc3[nH]c1=O)C(=O)c1ccccc1-2	/	102
O=C1c2ccccc2-c2c(Nc3ccccc3)c(=O)[nH]c3cccc1c23	/	111
COC(=O)c1ccccc1NC(=O)c1ccc2c(Cl)c3c(nc2c1)CCC3	-5	100
CCOC(=O)N1CCN(C2CCCc3c2[nH]c2ccc(C)cc32)CC1 (centres undefined)	-13	99
Cc1nn(-c2ccccc2)c2c1C(c1cccs1)N(C1CC1)C(c1ccccc1)=N2 (centres undefined)	-14	/

Some of these compounds in order of their number in GIV-Gai inh, rising.
smiles | GIV-Gai inh
O=C1c2ccccc2-c2c(NCCc3ccccc3)c(=O)[nH]c3cccc1c23 | -73*
CCCCNc1c2c3c(cccc3[nH]c1=O)C(=O)c1ccccc1-2 | -48*
Cc1cc(NCCc2ccccc2)n2ncc(-c3ccc(F)cc3)c2n1 | 103

Reprinted at random: six records from the list.
SMILES	HCMV NEC inh	GIV-Gai inh
CCCCNc1c2c3c(cccc3[nH]c1=O)C(=O)c1ccccc1-2	-58	-48*
COC(=O)c1ccccc1NC(=O)c1ccc2c(Cl)c3c(nc2c1)CCC3	-5	100
O=C1c2ccccc2-c2c(NCCc3ccccc3)c(=O)[nH]c3cccc1c23	/	-73*
Cc1nn(-c2ccccc2)c2c1C(c1cccs1)N(C1CC1)C(c1ccccc1)=N2 (centres undefined)	-14	/
Nc1c2c3c(c(Cl)ccc3[nH]c1=O)C(=O)c1ccccc1-2	/	102
Cc1cc(NCCc2ccccc2)n2ncc(-c3ccc(F)cc3)c2n1	-4	103

Remaining list, next part:
SMILES	HCMV NEC inh	GIV-Gai inh
COC(=O)C1=C(C)NC(=O)/C1=C\c1cccc2ccccc12	/	113
O=C1/C(=C/c2cccc3ccccc23)Nc2ccccc21	-9	57*
CC(C)N(C(=S)Nc1cccnc1)c1ccccc1	15	/
COc1ccc(/C=C2/C(=O)NC(=O)N(c3ccc(Br)cc3)C2=O)c(OC)c1	-3	107
COc1ccc(CN2C(=O)NC(=O)/C(=C\c3cc(OC)ccc3OC)C2=O)cc1	83*	112
CCOC(=O)C1=C(C)N=c2s/c(=C/c3cc([N+](=O)[O-])ccc3O)c(=O)n2C1c1ccc(SC)cc1 (centres undefined)	/	26*
CCOC(=O)C1=C(C)N=c2s/c(=C/c3cc(Br)cc([N+](=O)[O-])c3O)c(=O)n2C1c1ccccc1 (centres undefined)	/	26*
CCOC(=O)C1=C(C)N=c2s/c(=C/c3cccc([N+](=O)[O-])c3O)c(=O)n2C1c1cc(OC)c(OC)c(OC)c1 (centres undefined)	/	108
CCOC(=O)C1=C(C)N=c2s/c(=C/c3cc([N+](=O)[O-])ccc3N3CCN(C)CC3)c(=O)n2C1c1ccc(F)cc1 (centres undefined)	/	100
COc1ccc(C(=O)Nn2c(SCC(=O)c3ccc(Cl)cc3)nc3ccccc3c2=O)cc1	/	106
CN(C)c1ccc(/C=C2\Cc3ccccc3C2=O)cc1	/	-75*
O=C1/C(=C/c2ccc(N3CCOCC3)cc2)Cc2ccccc21	/	-75*
CN(C)c1ccc(/C=C2\CCC/C(=C\c3ccccc3)C2=O)cc1	/	155
CCn1c2ccccc2c2cc(/C=C3\Cc4ccccc4C3=O)ccc21	/	-74*
O=C1C(=Cc2ccc(N3CCCC3)cc2)C(=O)c2ccccc21	-4	-61*
CCn1c2ccccc2c2cc(/C=C3\CCC(C4CCCC4)C3=O)ccc21 (centres undefined)	/	106
O=C1/C(=C/c2ccc(N3CCOCC3)cc2)CC/C1=C\c1ccc(N2CCOCC2)cc1	/	133
O=C1NC(=O)C(=Cc2ccc(N3CCCC3)cc2)C(=O)N1	-4	99
CCN(C(=O)c1cc2c(=O)n3cccc(C)c3nc2s1)c1ccc(C)c(C)c1	-12	100
Cn1c(SCc2cc(=O)[nH]c3ccccc23)nc2ccccc2c1=O	-4	102
C=CC(=O)Nc1cccc(Oc2ccnc3[nH]ccc23)c1	33*	/
C=CC(=O)Nc1cccc(Oc2ccnc(Nc3ccc(N4CCN(C)CC4)cc3)n2)c1	-6	/
Nc1nnc2cc(C(=O)c3cc(F)ccc3O)cnn12	-10	/
Cc1ccc(O)c(C(=O)c2cnn3c(N)nnc3c2)c1	51*	/
COc1cccc(N2CCN(C(=O)c3cc4c(=O)n(Cc5ccco5)ccc4nc3C)CC2)c1	/	111
Cc1ncc(CO)c(/C=N/N=C/c2c(O)ccc3ccccc23)c1O	-4	117
Cc1ccc(C(O)CN=Cc2c(O)ccc3ccccc23)cn1 (centres undefined)	62*	/
Cc1ccc(-c2ccc(Nc3ccc(S(N)(=O)=O)cc3)nn2)cc1S(=O)(=O)N1CCOCC1	/	105
